From patent publication US20240174690A1, “ANNULATED 2-AMINO-3-CYANO THIOPHENES AND DERIVATIVES FOR THE TREATMENT OF CANCER” (BOEHRINGER INGELHEIM INTERNATIONAL GMBH, priority 2021, published 2024) come the findings set out here.

Protein sequences, listed by entry. Tags and fused reporters are not part of them. Chains listed by the source or under a name are the forms on record and can include a tag or linker. Residues count along the entry.
UniProt P01116, 1-164 with tags or gaps C118S/C51S/C80L/G12C limits assumed: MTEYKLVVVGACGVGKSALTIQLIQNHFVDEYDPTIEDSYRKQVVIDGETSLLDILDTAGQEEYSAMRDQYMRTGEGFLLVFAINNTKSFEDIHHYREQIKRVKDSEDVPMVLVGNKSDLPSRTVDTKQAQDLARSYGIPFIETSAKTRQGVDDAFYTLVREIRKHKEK

Data set [1] deals with KRAS (G12C)::SOS1 (Homo sapiens (Human), UniProt P01116, C118S/C51S/C80L/G12C). Briefly: KRAS::SOS1 AlphaScreen binding assay, KRAS G12C. To be noted: read-out: KRAS G12C IC50. The text has this: This assay can be used to examine the potency with which compounds according to the invention binding to (mutated) KRAS inhibit the protein-protein interaction between SOS1 and (mutated) KRAS e.g., KRAS WT, KRAS G12C, KRAS G12D, KRAS G12V, KRAS G13D. […] Low IC50 values in this assay setting are indicative of strong inhibition of protein-protein interaction between SOS1 and KRAS:
These assays measure the inhibitory effect of compounds on KRAS mutant protein-protein interactions using the Alpha Screen technology by Perkin Elmer. […]
Plates are kept at room temperature in a darkened incubator. After an additional 60 minutes incubation time the signal is measured in a PerkinElmer Envision HTS Multilabel Reader using the AlphaScreen specs from PerkinElmer. […]
As internal control known inhibitors of KRAS mutant::SOS1 interaction can be measured on each compound plate. […]
(In general: Bead proximity is the source of the signal in Alpha formats.)

Data set [2] in a line: Plasma protein binding assay (PPB), equilibrium dialysis, 10% FCS in PBS. To be noted: fraction unbound. How it is done:
Binding of test compounds to plasma was determined using equilibrium dialysis (ED) and quantitative mass spectrometry interfaced with liquid chromatography (LC-MS). In brief, ED was performed with dialysis devices consisting of two chambers separated by a semipermeable membrane with a molecular weight cut-off of 5-10 kg/mol. One chamber was filled with 10% FCS in PBS containing 1-10 μmol/L test compound and the other chamber was filled with phosphate-buffer saline (PBS) with or without dextran. The dialysis chamber was incubated for 3-5 hours at 37° C. After incubation, protein was precipitated from aliquots of each chamber and the concentration of test compound in the supernatant of the plasma-containing compartment (Cserum) and of the buffer-containing compartment (Cbuffer) was determined by LC-MS. The fraction of unbound test compound (not bound to plasma) (fu) was calculated according to the following equation: […]
(In general: In equilibrium dialysis only unbound substance equilibrates across the membrane.)

Data set [3] deals with KRAS G12C-dependent Ba/F3 cells. Description: Ba/F3 proliferation assay, KRAS G12C. To be noted: read-out: KRAS G12C Ba/F3 IC50, 72 h, AlamarBlue. How it is done: Ba/F3 cells are ordered from DSMZ (ACC300, Lot17) and grown in RPMI-1640 (ATCC 30-2001)+10% FCS+10 ng/mL IL-3 at 37° C. in 5% CO2 atmosphere. Plasmids containing KRASG12 mutants (i.e. […], G12C, G12V) are obtained from GeneScript. To generate KRASG12-dependent Ba/F3 models, Ba/F3 cells are transduced with retroviruses containing vectors that harbor KRASG12 isoforms. Platinum-E cells (Cell Biolabs) are used for retrovirus packaging. Retrovirus is added to Ba/F3 cells. To ensure infection, 4 μg/mL polybrene is added and cells are spinfected. Infection efficiency is confirmed by measuring GFP-positive cells using a cell analyzer. Cells with an infection efficiency of 10% to 20% are further cultivated and puromycin selection with 1 μg/mL is initiated. As a control, parental Ba/F3 cells are used to show selection status. Selection is considered successful when parental Ba/F3 cells cultures died. […]
For proliferation assays, Ba/F3 cells are seeded into 384-well plates at 1.5×10^3 cells/60 μL in growth media (RPMI-1640+10% FCS). […] AlamarBlue™ (ThermoFisher), a viability stain, is added and fluorescence measured in the PerkinElmer Envision HTS Multilabel Reader. The raw data are imported into and analyzed with the Boehringer Ingelheim proprietary software MegaLab (curve fitting based on the program PRISM, GraphPad Inc.).
A general note: The colour change of resazurin is a common sign of viable cells or microbes.

Regarding `Cc1ccncc1-c1cn(-c2cc(O[C@@H](C)[C@@H]3CCCN3C)nc(-c3noc4c3CCC[C@@]43CCCc4sc(N)c(C#N)c43)n2)nn1`, the IC50 in data set [1] worked out at 2 nM; in data set [3], 6 nM. For the same compound, in data set [2], the “PPB 10% FCS (% fu)” value was 5 % fu.
